The subject of assay [1] is MDA-MB-231 human breast adenocarcinoma. Briefly: MDA-MB-231 CCK-8 proliferation assay. To be noted: read-out: MDA-MB-231 CCK-8; MDA-MB-231 cells, 72 hr; tested form: HCl. How it is done: (§1) The following cancer cell lines were employed: A549 human lung carcinoma (ATCC, #CCL-185); BT-474 human breast carcinoma (ATCC, #HTB-20); MDA-MB-231 human breast adenocarcinoma (ATCC, #CRM−HTB-26); MDA-MB-468 human breast adenocarcinoma (ATCC, #HTB-132); MV-4-11 human acute myeloid leukemia (ATCC, #CRL-9591); and U-87 MG human glioblastoma (ATCC, #HTB-14). Cell lines were cultured essentially according to ATCC recommendations.
(§2) Cells were plated in 96-well tissue culture plates at 4,000 cells/well and incubated at 37° C./5% CO2 for 24 hr. 3-fold serial dilutions of each test compound were prepared ranging from 20 μM to 1.02 nM. Cells were then treated with test compounds at various concentrations with a final concentration of 0.5% DMSO/well, and then incubated at 37° C./5% CO2 for 72 hr. 10 μl the cell proliferation detection reagent CCK-8 (Dojindo Molecular Technologies, #CK04) was added to each well and incubated at 37° C./5% CO2 for 3-4 hr and the absorbance at 450 nm measured using an Perkin Elmer EnVision Plate Reader. Compound inhibition of was determined by the following equation and EC50 values (the concentration at which 50% of the maximal inhibition occurs) calculated using GraphPad Prism 7 software:
(§3) % Inhibition=100−(D−B)/(S−B)*100%. • S: Absorbance of cells treated with DMSO • D: Absorbance of compound-treated cells • B: Absorbance of medium with DMSO without cells
In general terms: Formazan colour is commonly taken as a measure of viable cells.

Amino acid sequences for entries named in this document (tags omitted).
UniProt Q13164, whole entry: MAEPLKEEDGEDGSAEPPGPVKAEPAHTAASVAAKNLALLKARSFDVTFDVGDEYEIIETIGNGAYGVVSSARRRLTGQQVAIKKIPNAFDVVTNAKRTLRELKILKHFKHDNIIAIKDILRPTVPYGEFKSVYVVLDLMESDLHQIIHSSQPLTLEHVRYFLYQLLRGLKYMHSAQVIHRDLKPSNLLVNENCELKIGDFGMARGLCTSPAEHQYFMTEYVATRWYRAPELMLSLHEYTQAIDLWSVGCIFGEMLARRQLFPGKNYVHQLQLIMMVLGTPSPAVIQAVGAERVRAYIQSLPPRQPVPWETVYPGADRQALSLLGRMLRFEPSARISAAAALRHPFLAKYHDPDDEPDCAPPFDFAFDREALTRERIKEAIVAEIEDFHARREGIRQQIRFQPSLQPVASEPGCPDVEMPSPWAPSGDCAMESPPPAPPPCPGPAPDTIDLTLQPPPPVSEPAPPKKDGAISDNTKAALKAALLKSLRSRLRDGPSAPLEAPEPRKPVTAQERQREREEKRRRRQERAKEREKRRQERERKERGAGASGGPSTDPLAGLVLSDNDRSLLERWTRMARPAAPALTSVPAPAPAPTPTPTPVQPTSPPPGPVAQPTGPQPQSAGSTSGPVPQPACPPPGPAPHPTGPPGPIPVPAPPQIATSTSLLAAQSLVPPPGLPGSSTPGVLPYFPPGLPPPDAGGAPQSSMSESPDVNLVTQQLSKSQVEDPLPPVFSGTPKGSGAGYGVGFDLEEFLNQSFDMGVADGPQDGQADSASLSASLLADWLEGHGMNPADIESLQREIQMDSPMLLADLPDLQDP

Assay [2] has as its system U-87 MG human glioblastoma. Briefly: U87 MG CCK-8 proliferation assay. To be noted: read-out: U87MG CCK-8; U-87 MG cells, 72 hr; tested form: HCl. How it is done: as §1, §2, §3
Assay [3] deals with MV-4-11 human acute myeloid leukemia. Briefly: MV-4-11 CCK-8 proliferation assay. To be noted: read-out: MV-4-11 CCK-8; MV-4-11 cells, 72 hr; tested form: HCl. How it is done:
as §1, §2, §3

The subject of assay [4] is A549 human lung carcinoma. Briefly: A549 CCK-8 proliferation assay. Conditions: read-out: A549 CCK-8; A549 cells, 72 hr; tested form: HCl. As to the method:
as §1, §2, §3

Assay [5] concerns the target HSP90α protein (Homo sapiens, UniProt P07900). Kind of assay: HSP90α-binding FP (BODIPY) assay. Conditions: read-out: HSP90α binding (BODIPY); FP competition with BODIPY-labeled RNK04010; tested form: HCl. As to the method: Binding of test compounds to HSP90α protein was measured by fluorescent polarization (FP) using the HSP90α (N-terminal) Assay Kit (BPS Bioscience, #50298), following the manufacturer's instructions, except as noted. Fluorescently labeled HSP90-binding compounds, either the provided FITC-geldanamycin (5 nM final concentration) or RNK04010, a triazolone-based HSP90 binding small molecule labeled with BODIPY through a piperazine-phenyl linker (5 nM final concentration) were employed. A 2.5-fold serial dilution of each test compound ranging from 20 μM to 5.2 nM was assayed for binding to HSP90α. After the final step of adding HSP90α protein to each assay well, plates were mixed by brief shaking, incubated at 25° C. for 120 min for FITC-geldanamycin or 300 min for RNK04010, and fluorescence was measured using a PerkinElmer EnVision Plate Reader. Background-subtracted mP values were calculated from raw data and a four-parameter “log[inhibitor] vs. response” curve was fitted and IC50 values (the concentration at which 50% of the maximal inhibition occurs) calculated using GraphPad Prism 7 software.

The subject of assay [6] is MDA-MB-468 human breast adenocarcinoma. Kind of assay: MDA-MB-468 CCK-8 proliferation assay. To be noted: read-out: MDA-MB-468 CCK-8; MDA-MB-468 cells, 72 hr; tested form: HCl. How it is done:
as §1, §2, §3

Assay [7] relates to ERBB2. Kind of assay: ERBB2 (HER2) flow cytometry protein degradation assay in BT-474 cells. Conditions: DC50, BT-474 cells, 24 hr, tested form: HCl. As to the method: BT-474 human breast carcinoma cells were plated in 24-well tissue culture plates at 250,000 cells/well and incubated at 37° C./5% CO2 for 24 hr. Cells were then treated with test compounds at various concentrations and incubated at 37° C./5% CO2 for 24 hr. To analyze total ERBB2 expression by flow cytometry, cells were detached with trypsin, washed, counted and treated with 10 μl/10^6 cells PE-conjugated, anti-ERBB2 monoclonal antibody (R&D Systems, #FAB1129P) for 30 min at 25° C. in dark. Cells were then washed, resuspended in 200 μl 1% paraformaldehyde and analyzed by flow cytometry. Compound inhibition of was determined by the following equation and DC50 values (the concentration at which 50% of the maximal degradation of ERBB2 occurs) calculated using GraphPad Prism 7 software:
% Inhibition=100−(D−B)/(S−B)*100%. • S: Fluorescence intensity of cells with antibody • D: Fluorescence intensity of compound-treated cells with antibody • B: Fluorescence intensity of cells without antibody
A general note: In flow cytometry, cells or beads pass a laser one at a time.

For assay [8], the target named is T1, MAPK7 (Homo sapiens, UniProt Q13164). Briefly: MAPK7 kinase assay (ADP-Glo). To be noted: read-out: MAPK7 kinase, ATP 340 μM, tested form: HCl. As to the method:
The inhibition of MAPK7 kinase activity by test compounds was measured by the ADP-Glo Kinase Assay (Promega, #V6930), following the manufacturer's instructions, except as noted. 3-fold serial dilutions of each test compound were prepared ranging from 50 μM to 2.54 nM. Also, as a positive control, a 4-fold serial dilution of the MAPK7 inhibitor, XMD17-109 (MedChemExpress, #HY-15665) was prepared ranging from 10 μM to 0.04 nM. In brief, in 384-well plates, test compounds were added to the kinase reaction mix containing recombinant MAPK7 protein (Carna Biosciences, #04-146; 20 nM final concentration), myelin basic protein (SignalChem Biotech, #M42-54G; 0.1 mg/ml final concentration) and ATP (340 μM final concentration), then mixed by shaking and incubated with ADP-Glo Reagent and Kinase Detection Reagent. Luminescence was measured on a BioTek plate reader. The % inhibition was calculated using following equation and plotted and IC50 values (the concentration at which 50% of the maximal inhibition occurs) calculated using GraphPad Prism 7 software: […]
Lumpositive: The average ratio for 10 wells of positive controls (10 μM XMD17-109) across the plate.
Lumvehicle: The average ratio for 10 wells of negative controls (0.5% DMSO) across the plate.
(In general: ADP-Glo turns the ADP formed in a reaction into a luminescent signal.)

In assay [9] the target is T1, MAPK7. Briefly: MAPK7 Western blot protein degradation assay in U-87 MG cells. To be noted: 48 hr, tested form: HCl. How it is done:
U-87 MG human glioblastoma cells were seeded in 6- or 12-well tissue culture plates, and after 1 hr, test compounds were added at various concentrations and incubated at 37° C./5% CO2 for 48 hr. Cells were then washed with cold PBS, aspirated and cold RIPA buffer containing a protease/phosphatase inhibitor cocktail was added to lyse cells. After centrifugation, the total protein concentrations of cell lysates were determined using the BCA protein assay. Samples were normalized for equivalent protein concentrations, 5×SDS-PAGE loading buffer added and denatured at 100° C. for 10 min. 20 μl of each sample/well was loaded on a SDS-PAGE gel and electrophoresed for 20 min at 80 V, then 120 V for 1.5 hr. Gels were then electroblotted to nitrocellulose membranes using a wet-transfer method at 250 mA for 2.5 hr. Membranes were incubated with blocking buffer for 1 hr and washed 3 times with TBST for 5 min. Membranes were then incubated with anti-MAPK7 (anti-ERK5; Cell Signaling Technology, #12950) and anti-3-Actin (Cell Signaling Technology, #3700) monoclonal antibodies diluted in blocking buffer at 4° C. overnight per the manufacturer's recommendations. After washing 3 times, blots were incubated with appropriately labeled secondary antibodies for 1 hr at room temperature and washed again. Fluorescence imaging and quantitation was performed using a LI-COR Odyssey. Results was analyzed using GraphPad Prism 7 software.

Each structure is given as a SMILES string.

In the case of `CCOc1cc(N2CCC(C(=O)N3CCN(Cc4ccc(-n5c(O)nnc5-c5cc(C(C)C)c(O)cc5O)cc4)CC3)CC2)ccc1N(C)c1ncc2c(n1)N(C)c1ccccc1C(=O)N2C` [Compound 047, 2-((4-(4-(4-(4-(3-(2,4-dihydroxy-5-isopropylphenyl)-5-hydroxy-4H-1,2,4-triazol-4-yl)benzyl)piperazine-1-carbonyl)piperidin-1-yl)-2-ethoxyphenyl)(methyl)amino)-5,11-dimethyl-5,11-dihydro-6H-benzo[e]pyrimido[5,4-b][1,4]diazepin-6-one], the EC50 was 100 to 1000 nM in [1]; 100 to 1000 nM in assay [2]; below 100 nM in [3]; 100 to 1000 nM in [4]; 100 to 1000 nM in assay [6]. In addition, the IC50 in assay [5] is 100 to 1000 nM; in assay [8], above 1000 nM. Moreover, the ERBB2 degradation result in [7] is “B (DC50 = 100-1000 nM)”. Further, the “MAPK7 degradation (30 nM)” value in [9] (30 nM) was “C (< 33% degradation)”. In addition, in assay [9] (100 nM), the “MAPK7 degradation (100 nM)” value is listed as “C (< 33% degradation)”. For the same compound, the “MAPK7 degradation (300 nM)” value in [9] (300 nM) is “A (>66% degradation)”. Also, in [9] (1000 nM), the “MAPK7 degradation (1000 nM)” value was “A (>66% degradation)”.

(Values after patent publication US20240124460A1, “METHODS AND COMPOSITIONS FOR TARGETED PROTEIN DEGRADATION” (Ranok Therapeutics (Hangzhou) Co. Ltd., priority 2020, published 2024).)
